ChEMBL document CHEMBL1145271 (Bioorg Med Chem Lett, 2005)

By UniProt entry, the sequences of proteins in these tests, tags left out. Where a name states a change or a piece, a line headed by the entry shows the natural chain unless it says otherwise.
UniProt P41145: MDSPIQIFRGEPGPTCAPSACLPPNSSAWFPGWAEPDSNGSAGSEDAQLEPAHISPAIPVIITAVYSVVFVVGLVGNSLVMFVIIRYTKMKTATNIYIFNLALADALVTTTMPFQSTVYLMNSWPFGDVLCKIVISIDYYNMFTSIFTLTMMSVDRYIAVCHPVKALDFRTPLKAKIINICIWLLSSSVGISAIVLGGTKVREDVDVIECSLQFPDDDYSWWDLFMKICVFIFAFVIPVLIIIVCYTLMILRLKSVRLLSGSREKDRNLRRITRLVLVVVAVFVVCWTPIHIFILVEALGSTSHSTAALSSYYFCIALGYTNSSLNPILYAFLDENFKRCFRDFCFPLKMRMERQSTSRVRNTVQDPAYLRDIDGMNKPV

Molecular target: Kappa-type opioid receptor (Homo sapiens, UniProt P41145)
Experiment: Activation of human Opioid receptor kappa 1 expressed in chinese hamster ovary cells to enhance [35S]GTP-gamma-S, binding compared to U50,488H
Format: functional, cell-based
Outline: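 Agonist efficacy at human κ-opioid receptor, read as enhancement of [35S]GTPγS binding and expressed as % of the maximal response to U50,488H. Mean of at least three independent experiments, each run in duplicate.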

SMILES: CN(C(=O)Cc1ccc(Cl)c(Cl)c1)C1CCCCC1N1CCCC1 (stereo unspecified)
- Efficacy: 100%
